Values quoted from earlier work as cited in patent US20180148480A1, “SYNTHETIC ENHANCEMENT OF THE T-CELL ARM[…] AN ANTI-CANCER THERAPY” (THE JOHNS HOPKINS UNIVERSITY, priority 2015, published 2018).

Sequences of proteins named here, by UniProt entry; tags and fusion partners are left off. Residues count along the entry.
UniProt P07288, 25-261: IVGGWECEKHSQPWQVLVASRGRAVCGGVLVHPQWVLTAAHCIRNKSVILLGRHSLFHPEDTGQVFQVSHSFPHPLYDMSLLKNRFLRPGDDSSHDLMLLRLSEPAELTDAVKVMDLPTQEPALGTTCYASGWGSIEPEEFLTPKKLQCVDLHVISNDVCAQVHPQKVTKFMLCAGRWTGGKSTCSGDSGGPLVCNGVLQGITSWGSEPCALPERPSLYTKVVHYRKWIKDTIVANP

Target: PSA (Homo sapiens, UniProt P07288)
Conditions: boronic acid-based PSA inhibitor

Substance: Ahx-FSQn(boro)Bpg
- Ki: 72 nM
